For 81 compounds, activity change, negative = inhibition results are on record in PubChem BioAssay AID2098 (Broad Institute, 2009).

The entries are a selection whose mix differs from that of the whole data set. Calls of active or inactive are those of the source.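 The calls were made as follows: active = more than half of replicate wells show activity change below -50%, luminescence cut by over half; inconclusive = some wells, but at most half, below -50%; inactive = no replicate well below -50%.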

The nature of the assay: blocking HSF1-driven luciferase expression – cell-based, NIH3T3, luminescence, primary screen (AID 2098).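 Also: luciferase reports HSF-1 transcriptional activity via heat shock element; 0% = median of DMSO wells and -100% = zero luminescence signal.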 The note with it: NIH3T3-HGL HSE-luciferase, MG132-induced, luminescence 8 h; active compounds read low; screened at 7.5 µM (by protocol).
Consider `CCCCOc1ccc(C(=O)NCC2(N3CCCCC3)CCCCC2)cc1OC`, for which the activity change, negative = inhibition was inactive: 2.03%.
Next, `Cc1cc(SC(NC(=O)c2ccccc2)C(Cl)(Cl)Cl)nc(C(C)C)n1` (stereo unspecified): inactive: 9.09%.
The value for `CCOC(=O)Nc1ccc([As](=O)(O)O)c(O)c1` was inactive: -2.43%; that for `CCC(C)N(CC(C)C)C(=S)SC(NC(C)=O)C(Cl)(Cl)Cl` (stereo unspecified) was inactive: 15.8%; that for `CCOC(=O)c1ccc(NC(=O)C(C)(CCl)SC)cc1` (stereo unspecified) was inactive: 5.51%.
The value for `O=C(OC1CN2CCC1CC2)c1cccc([N+](=O)[O-])c1` (stereo unspecified) was inactive: -1.42%; that for `O=C(COc1ccccc1)OC1CN2CCC1CC2` (stereo unspecified) was inactive: 2.86%.
Regarding `O=C(Nc1ccncc1[N+](=O)[O-])c1ccc([N+](=O)[O-])cc1[N+](=O)[O-]`, the activity change, negative = inhibition was inactive: -2.25%.
The value for `COP1(=S)c2c(C)nn(CCC#N)c2N=C(c2ccc(F)cc2)N1C` (stereo unspecified) was inactive: -2.48%.
Next, `CC(C)=N/N=C(\N)N[N+](=O)[O-]`: inactive: -2.71%.
The value for `CN(C)C(=O)OCCc1n(C)cc[n+]1C` was inactive: -2.49%.
Consider `CC1CCN(C(=O)Oc2c(Cl)cc(Cl)c3cccnc23)CC1`, for which the activity change, negative = inhibition was inactive: 14.4%.
The value for `Nc1ccc([As](=O)(O)c2ccc(N)cc2)cc1` was inactive: 3.87%; that for `C[N+]1=C2C=CC=CC=C2SC12C([N+](=O)[O-])=CC([N+](=O)[O-])=C[C-]2[N+](=O)[O-]` (stereo unspecified) was inactive: 13.6%.
The value for `CCN(/C(=N/P(=O)(N1CCOCC1)N1CCOCC1)N1CCOCC1)c1ccc(OC)cc1` was inactive: -5.49%; that for `CC(=O)N1C2C3N(C(C)=O)C1C1N(C(C)=O)C(C(N1C(C)=O)N3C(C)=O)N2C(C)=O` was inactive: -8.26%; that for `O=[N+]([O-])c1cccc2n[nH]nc12` was inactive: -4.31%.
For the compound `Cc1ccc(NP(=O)(Oc2ccccc2)Oc2ccccc2)nc1`, the activity change, negative = inhibition was inactive: 1.86%.
The value for `O=[N+]([O-])c1cc([N+](=O)[O-])c(CCNc2ccccc2)c([N+](=O)[O-])c1` was inactive: 16.1%; that for `CCc1nc2c(n1)c1c(non1O)c1c2no[n+]1[O-]` was inactive: 147%.
Next, `COc1ccc(C2=NCC(CBr)S2)cc1` (stereo unspecified): inactive: -3.06%; `O=[N+]([O-])c1cccc(NC2=NCC(CBr)S2)c1` (stereo unspecified): inactive: -2.8%.
Regarding `O=C(O)CNc1ccc([As](=O)(O)O)cc1`, the activity change, negative = inhibition is inactive: 0.994%.
Next, `CC(C)(C)C(=O)NC(Sc1ccncn1)C(Cl)(Cl)Cl` (stereo unspecified): inactive: -8.17%; `O=[N+]([O-])c1ncn(CCn2ncnc2[N+](=O)[O-])n1`: inactive: -4.22%; `O=C(Nc1cc([As](=O)(O)O)ccc1O)c1ccccc1`: inactive: -3.71%.
Take `CCN(N=Nc1nonc1N)c1nonc1N`: the activity change, negative = inhibition is inactive: -3.18%.
The value for `Nc1cccc2ccc([As](=O)(O)O)cc12` was inactive: -5.46%.
Next, `O=[N+]([O-])c1cc([N+](=O)[O-])c(CCN2CCOCC2)c([N+](=O)[O-])c1`: inactive: 5.29%; `CCOP(=O)(Nc1ccccc1)OCC`: inactive: -0.264%; `Cc1cc(SC(NC(=O)c2ccc(F)cc2)C(Cl)(Cl)Cl)ncn1` (stereo unspecified): inactive: -2.54%.
On to `CN(C(=O)Cc1ccc(Cl)c(Cl)c1)[C@H]1CCCC[C@@H]1N1CCCC1`, for which the activity change, negative = inhibition is inactive: -5.69%.
Next, `Cc1ccc(NP(=O)(Oc2ccccc2F)Oc2ccccc2F)nc1`: inactive: 0.618%; `O=C(O)c1ccccc1[As](=O)(O)O`: inactive: -0.611%; `CC(=O)Nc1ccc([As](=O)(O)O)cc1`: inactive: 3.08%.
Next, `O=P(Nc1nc2ccc(Cl)cc2s1)(c1ccccc1)c1ccccc1`: inactive: 24.8%; `CC(C)CC(=O)NC(Sc1ccc(Cl)cc1)C(Cl)(Cl)Cl` (stereo unspecified): inactive: 7.81%; `Nc1cc(N)c2nonc2c1[N+](=O)[O-]`: inactive: -3.08%.
Next, `Oc1ccccc1CNc1ccccn1`: inactive: 7.14%; `Cc1c2non([O-])c-2c(C)[n+](=O)[n+]1[O-]`: inactive: -10.4%.
Take `O=C(NC(Sc1ccncn1)C(Cl)(Cl)Cl)c1ccccc1` (stereo unspecified): the activity change, negative = inhibition is inactive: 2.94%.
With `COc1ccccc1OP(=O)(Nc1ccc(C)cn1)Oc1ccccc1OC`, the activity change, negative = inhibition was inactive: 4.87%.
For the compound `Cc1ccc(OP(=O)(Nc2nccs2)Oc2ccc(C)cc2)cc1`, the activity change, negative = inhibition is inactive: 0.411%.
As for `Clc1ccc(Cl)c(NC2=NCC(CBr)S2)c1` (stereo unspecified), the activity change, negative = inhibition is inactive: -1.01%.
The value for `CN1CCCC(OC(=O)C(c2ccccc2)c2ccccc2)C1` (stereo unspecified) was inactive: -6.53%; that for `NC(=O)c1cc([N+](=O)[O-])cc([N+](=O)[O-])c1N` was inactive: -5.21%.
The value for `Cc1ccc(N/C(=N/P(=O)(N2CCOCC2)N2CCOCC2)N2CCOCC2)cc1` was inactive: -4.31%; that for `CC(=O)Nc1ccc([As](=O)(O)O)c(O)c1` was inactive: -6.9%; that for `CC(=O)Nc1ccc(Oc2c([N+](=O)[O-])cc([N+](=O)[O-])cc2[N+](=O)[O-])cc1` was inactive: -6.78%.
Take `CC(=O)c1ccc(N2CC2c2ccncc2)cc1` (stereo unspecified): the activity change, negative = inhibition was inactive: -4.01%.
The value for `C[C@@H]1C=CCP(=O)(Oc2ccccc2)O1` (stereo partly specified) was inactive: -2.55%.
The value for `C[C@H]1OP(=O)(Oc2ccccc2)C[C@@H]2O[C@@H]21` (stereo partly specified) was inactive: -11.7%; that for `CC(C)(C)C(=O)NC(Sc1ccccc1)C(Cl)(Cl)Cl` (stereo unspecified) was inactive: -2.41%; that for `O=P1(Nc2nc3ccc(Cl)cc3s2)COc2ccccc2O1` (stereo unspecified) was inactive: 7.65%.
The value for `CCOc1ccc(C2=NCC(CBr)S2)cc1` (stereo unspecified) was inactive: -2.72%; that for `Cc1ccccc1OP(=O)(Nc1ccccn1)Oc1ccccc1C` was inactive: 2.25%.
As to `CN(C)C(=O)Oc1noc2ccccc12`, the activity change, negative = inhibition was inactive: -4.35%.
The value for `COC(=O)c1cc2c(s1)N=C(c1ccccc1)N(C)P2(=O)N1CCOCC1` (stereo unspecified) was inactive: -8.41%; that for `CC(=O)NC(SC(=S)N(CC(C)C)CC(C)C)C(Cl)(Cl)Cl` (stereo unspecified) was inactive: -0.635%; that for `Cc1ccc(OP(=O)(Nc2ccccn2)Oc2ccc(C)cc2)cc1` was inactive: 0.658%.
The value for `O=C(OC1CN2CCC1CC2)c1ccccc1` (stereo unspecified) was inactive: -1.38%; that for `CCC(=O)N1C2C3N(C(=O)CC)C1C1N(C(=O)CC)C(C(N1C(=O)CC)N3C(=O)CC)N2C(=O)CC` was inactive: 7.9%; that for `O=C(NC1CCS(=O)(=O)C1)NP(=S)(Oc1ccccc1)Oc1ccccc1` (stereo unspecified) was inactive: -4.22%.
Next, `CCNC(=S)/N=C(\N)N[N+](=O)[O-]`: inactive: 9.7%.
Turning to `c1ccc(-c2nn[nH]n2)c(-c2nn[nH]n2)c1`, the activity change, negative = inhibition is inactive: -1.83%.
The value for `Cc1ccc(NP(=O)(Oc2cccc(C)c2)Oc2cccc(C)c2)nc1` was inactive: -7.73%; that for `CCOC(=O)NC(Sc1ccccc1)C(Cl)(Cl)Cl` (stereo unspecified) was inactive: 8.22%; that for `Nc1ccc([As](=O)(O)c2ccc([N+](=O)[O-])cc2)cc1` was inactive: -0.436%.
The value for `C(Cc1nn[nH]n1)Cc1nn[nH]n1` was inactive: -4.99%.
The value for `O=C(OC1CN2CCC1CC2)c1cccc(Cl)c1` (stereo unspecified) was active: -53.7%; that for `CC(=O)NC(SC(=S)N(C)C)C(Cl)(Cl)Cl` (stereo unspecified) was inactive: -1.57%; that for `O=[N+]([O-])c1ncn(CCn2cnc([N+](=O)[O-])n2)n1` was inactive: -2.87%.
Turning to `O=[N+]([O-])c1ccc(O)c(/C=N/Nc2ccc([N+](=O)[O-])cc2[N+](=O)[O-])c1`, the activity change, negative = inhibition is inactive: -8.57%.
Next, `O=[As](O)(c1ccccc1)c1ccc(O)cc1`: inactive: -5.53%; `O=P(Nc1nc2ccccc2s1)(c1ccccc1)c1ccccc1`: inactive: 12%; `C[C@H]1OP(=O)(Oc2ccccc2)[C@H](O)[C@H](O)[C@H]1N=[N+]=[N-]` (stereo partly specified): inactive: -1.79%.
The value for `CN(C)C1(CNC(=O)c2ccc(Cl)c(S(N)(=O)=O)c2)CCCCC1` was inactive: 0.663%; that for `O=P(Nc1ccccn1)(c1ccc(Br)cc1)c1ccc(Br)cc1` was inactive: -6.04%.
The value for `c1nnnn1CCn1cnnn1` was inactive: -1.63%; that for `O=P(Nc1nccs1)(c1ccccc1)c1ccccc1` was inactive: -7.68%; that for `CC(C)C(=O)NC(Sc1ccccc1)C(Cl)(Cl)Cl` (stereo unspecified) was inactive: -35.2%.
